From patent US20200405697A1, “Antitumor Agent” (Taiho Pharmaceutical Co., Ltd, priority 2017, published 2020)

How the values were obtained:
[1] = system: MV-4-11 (Human blood cancer cell line); experiment: Effect of combination of sulfonamide compound and other antitumor agent (CellTiter-Glo, combination index): MV-4-11
[2] = system: A549 (Human lung cancer cell line); experiment: Effect of combination of sulfonamide compound and other antitumor agent (CellTiter-Glo, combination index): A549
[3] = system: CFPAC-1 (Human pancreatic cancer cell line); experiment: Effect of combination of sulfonamide compound and other antitumor agent (CellTiter-Glo, combination index): CFPAC-1;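 also: cells exposed to both agents together for 3 days, viability read by luminescence, normalized to vehicle-treated control wells, mean of triplicate wells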
[4] = Example Compound 209A 145 nM + Decitabine 75.2 nM
[5] = Example Compound 235A 203 nM + Decitabine 75.3 nM
[6] = Example Compound 209A 423 nM + Guadecitabine 489 nM
[7] = Example Compound 209A 145 nM + Guadecitabine 26.8 nM
[8] = Example Compound 235A 203 nM + Guadecitabine 26.8 nM
[9] = Example Compound 5 700 nM + Gemcitabine 3.52 nM
[10] = Example Compound 209A 423 nM + Prexasertib 4.44 nM
[11] = Example Compound 209A 339 nM + Prexasertib 4.26 nM
[12] = Example Compound 1 633 nM + Cytarabine 162 nM, molar ratio 1:0.2566
[13] = Example Compound 1 633 nM + Decitabine 1330 nM, molar ratio 1:2.108
[14] = Example Compound 1 273 nM + Cytarabine 262 nM, molar ratio 1:0.9614
[15] = Example Compound 1 507 nM + Gemcitabine 3.52 nM, molar ratio 1:0.006950

SMILES: Nc1ncn([C@H]2C[C@H](O)[C@@H](CO)O2)c(=O)n1 [Decitabine, decitabine]
- CI value [1, 4]: 0.790
- Fa value [1, 4]: 0.6143
- CI value [1, 5]: 0.764
- Fa value [1, 5]: 0.5302

SMILES: Nc1ncn([C@H]2C[C@H](OP(=O)(O)OC[C@H]3O[C@@H](n4cnc5c(=O)[nH]c(N)nc54)C[C@@H]3O)[C@@H](CO)O2)c(=O)n1 [Guadecitabine, guadecitabine]
- CI value [2, 6]: 0.577
- Fa value [2, 6]: 0.4525
- CI value [1, 7]: 0.767
- Fa value [1, 7]: 0.6306
- CI value [1, 8]: 0.696
- Fa value [1, 8]: 0.5802

SMILES: Nc1ccn([C@@H]2O[C@H](CO)[C@@H](O)C2(F)F)c(=O)n1 [Gemcitabine, gemcitabine]
- CI value [3, 9]: 0.814
- Fa value [3, 9]: 0.5292

SMILES: COc1cccc(OCCCN)c1-c1cc(Nc2cnc(C#N)cn2)n[nH]1 [Prexasertib, prexasertib]
- CI value [2, 10]: 0.169
- Fa value [2, 10]: 0.8944
- CI value [3, 11]: 0.704
- Fa value [3, 11]: 0.7662

SMILES: Cc1ccc(F)c([C@@H](C)[C@H](NS(=O)(=O)c2ccc(Br)cc2C(N)=O)c2n[nH]c(=O)o2)c1C [Example 1, 5-bromo-2-(N-((1 S,2R)-2-(6-fluoro-2,3-dimethylphenyl)-1-(5-oxo-4,5-dihydro-1,3,4-oxadiazol-2-yl)propyl)sulfamoyl)benzamide]
- CI value [2, 12]: 0.614
- Fa value [2, 12]: 0.6164
- CI value [2, 13]: 0.532
- Fa value [2, 13]: 0.3872
- CI value [1, 14]: 0.574
- Fa value [1, 14]: 0.7678
- CI value [3, 15]: 0.821
- Fa value [3, 15]: 0.5009
